# Experimental data reported in patent US9962444B2, “Pharmacokinetically extended action topical hair growth formulation, and administration method” (priority 2016, dated 2018).
# Assay: in vitro percutaneous absorption of minoxidil, Franz Finite Dose Model
# Conditions: ex vivo human scalp skin, 48 hours
compound,measurement,value
Nc1cc(N2CCCCC2)nc(N)[n+]1[O-] [minoxidil],percutaneous absorption (result in words),did absorb into and penetrate through ex vivo human scalp skin
